Test results: patent US7622446B2, “Polypeptides, derivatives and uses thereof” (The Open University, priority 2001, dated 2009)

Test system: chicks
Assay: Effect of β-amyloid 12-28 on memory formation, passive avoidance task, strong training
Format: in vivo, chick
Settings: FIG. 2; injected into the brain 30 minutes pretraining; memory tested 30 minutes posttraining
Procedure: Commercially obtained Ross Chunky eggs were incubated and hatched in brooders and held until 16±6 hours old. Chicks were placed in pairs in small aluminium pens. Following an equilibration period of an hour, the chicks were pretrained and trained essentially as described by Lossner and Rose (J. Neurochem. 41, 1357-1363 (1983), the contents of which are incorporated herein by reference). Pretraining involved three 10 s presentations of a small (2 mm diameter) white bead, at approximately 5 minute intervals. […] Two training techniques were used: “strong” and “weak” training. In both, 5 to 10 minutes after the last pre-training trial, chicks were trained by a 10 s presentation of a 4 mm diameter chrome bead, which had been dipped in the bitter-tasting methylanthranilate. Control chicks pecked at a water-coated or dry bead. In the “strong” version of the task, 100% methylanthranilate was used. In the “weak” version, 10% methylanthranilate was used. Chicks spontaneously pecked at the training or control beads within 20 s. Chicks that peck at the bitter bead evinced a disgust reaction and would not normally peck at a similar, but dry bead for some hours subsequently. […] Recall is calculated as a percent avoidance score (percentage of chicks which avoid the chrome bead) and as a discrimination score (percentage of chicks which avoid the chrome but peck at the white bead). […]

Substance: Val-His-His-Gln-Lys-Leu-Val-Phe-Phe-Ala-Glu-Asp-Val-Gly-Ser-Asn-Lys (VHHQKLVFFAEDVGSNK) [β-amyloid 12-28, amnesia-inducing agent]
- effect on memory formation (percent avoidance: total avoidance and discrimination): results in amnesia
